Experimental data reported in ChEMBL document CHEMBL3734668, “Evaluation of small molecule SecA inhibitors against methicillin-resistant Staphylococcus aureus” (Bioorg Med Chem, 2015).
Active and inactive are the calls of the source. The calls are words filed in the database; no cut-off is given here.

Target: T1, Protein translocase subunit SecA 1 (Staphylococcus aureus (strain NCTC 8325)) (UniProt O06446)
T1 sequence (whole entry): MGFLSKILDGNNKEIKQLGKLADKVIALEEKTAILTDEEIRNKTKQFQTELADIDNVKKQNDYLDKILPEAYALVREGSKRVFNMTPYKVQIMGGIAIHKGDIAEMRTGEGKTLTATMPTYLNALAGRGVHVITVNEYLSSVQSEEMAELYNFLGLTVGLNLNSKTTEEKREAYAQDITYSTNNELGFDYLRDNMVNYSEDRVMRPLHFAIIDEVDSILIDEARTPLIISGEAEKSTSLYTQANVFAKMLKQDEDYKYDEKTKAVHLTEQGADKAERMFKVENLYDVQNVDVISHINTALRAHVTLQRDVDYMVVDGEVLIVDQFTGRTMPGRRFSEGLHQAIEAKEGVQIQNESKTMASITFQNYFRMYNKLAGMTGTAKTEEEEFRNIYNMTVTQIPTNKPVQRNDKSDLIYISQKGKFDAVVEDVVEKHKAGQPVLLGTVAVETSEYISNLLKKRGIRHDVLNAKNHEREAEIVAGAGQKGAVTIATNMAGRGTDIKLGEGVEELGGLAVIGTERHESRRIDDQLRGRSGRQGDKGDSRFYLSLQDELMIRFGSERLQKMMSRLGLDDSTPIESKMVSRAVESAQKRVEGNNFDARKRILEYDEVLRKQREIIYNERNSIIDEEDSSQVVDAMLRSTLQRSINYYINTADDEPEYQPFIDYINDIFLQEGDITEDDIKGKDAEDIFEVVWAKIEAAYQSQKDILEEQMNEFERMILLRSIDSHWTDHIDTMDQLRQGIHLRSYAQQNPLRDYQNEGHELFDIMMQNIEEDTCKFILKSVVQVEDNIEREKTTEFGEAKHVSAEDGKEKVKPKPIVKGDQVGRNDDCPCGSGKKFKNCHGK
Experiment: Non-competitive inhibition of Staphylococcus aureus ATCC 35556 SecA1 liposomal ATPase activity in Xenopus laevis oocytes incubated for 3 hrs measured by Lineweaver-Burk plot analysis
Assay type: cell-based
How it was run: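 SaSecA1-liposome plus proOmpA co-injected into Xenopus oocytes at varying ATP and inhibitor concentrations, incubated 3 hr at 23 °C, ion current recorded 1 min; n = 9-10. Inhibition mode assessed across ATP levels.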

`O=C([O-])c1c(Cl)c(Cl)c(Cl)c(Cl)c1-c1c2cc(I)c(=O)c(I)c-2oc2c(I)c([O-])c(I)cc12.[Na+].[Na+]` [ROSE BENGAL SODIUM] was tested, and the inhibition was “Active”.
